Results from PubChem BioAssay AID686970 (National Center for Advancing Translational Sciences (NCATS), 2013).
The list shows a part of the results, in another mix than the full data. Inconclusive results are not listed. Entries that show only a call come without a potency. Activity calls are given as the source filed them. Calls follow the shape of the dose curve; as a rule, active = well fitted cell-killing curve with a large enough effect; inconclusive = small, poorly fitted or top-dose-only effect, or effect the other way; inactive = flat fitted curve, though single readings scatter.

test: qHTS for induction of synthetic lethality in tumor cells producing 2HG: qHTS for the HT-1080-NT fibrosarcoma cell line; conditions: HT-1080-NT fibrosarcoma viability, CellTiter-Glo ATP luminescence, 48 h; series mostly up to 46.1 µM;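 also: NT is the 2HG producing partner of a matched IDH1 knockdown line; nearly all actives have a fitted effect of over 55% in size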
Potency is read from the fitted curve at half-maximal effect.

SMILES | Potency | activity, negative = less viability
Cc1cccc(C)c1OP(C)(N)=O (stereo not drawn) | inactive | 
CC(C)(C)c1ccc(OP(C)(=O)Nc2ccc(SC(F)(F)F)cc2)cc1 (stereo not drawn) | inactive | 
COc1cc(C(=O)NCC2(N3CCOCC3)CCCCC2)ccc1OCC(C)C | inactive | 
O=[N+]([O-])c1cc([N+](=O)[O-])c(Nc2cccnc2)c([N+](=O)[O-])c1 | inactive | 
Cc1cc(C)cc(OP(C)(N)=O)c1 (stereo not drawn) | inactive | 
COc1ccc(OP(C)(=O)Nc2cccc(F)c2)cc1 (stereo not drawn) | inactive | 
COc1ccccc1OP(C)(=O)Nc1cc(Cl)ccc1C (stereo not drawn) | inactive | 
Cc1ccc(NP(C)(=O)Oc2ccccc2)c(C)c1 (stereo not drawn) | inactive | 
COc1ccccc1OP(C)(=O)Nc1ccc(C)cc1 (stereo not drawn) | inactive | 
CCOC(=O)c1ccc(NP(C)(=O)Oc2ccccc2)cc1 (stereo not drawn) | inactive | 
CCN(CC)CCCOC(=O)C(O)(c1ccccc1)c1ccccc1 | inactive | 
COc1ccccc1-c1ccccn1.O=[N+]([O-])c1cc([N+](=O)[O-])c(O)c([N+](=O)[O-])c1 | inactive | 
CP(=O)(NC(=O)Nc1ccccc1)Oc1ccccc1 (stereo not drawn) | inactive | 
CCc1ccc(OP(C)(=O)N2CCN(c3ccc([N+](=O)[O-])cc3)CC2)cc1 (stereo not drawn) | inactive | 
CP(=O)(Oc1ccccc1)OC(c1ccccc1)C(F)(F)F (stereo not drawn) | inactive | 
Cc1cccc(C)c1OP(C)(=O)Nc1ccc(SC(F)(F)F)cc1 (stereo not drawn) | inactive | 
CP(=O)(Nc1ccc(SC(F)(F)F)cc1)Oc1ccc(Cl)cc1 (stereo not drawn) | inactive | 
CP(=O)(Nc1ccccn1)Oc1ccc(Cl)cc1 (stereo not drawn) | inactive | 
CCOC(=O)c1ccc(NP(C)(=O)Oc2ccc(OC)cc2)cc1 (stereo not drawn) | inactive | 
O=[N+]([O-])c1cc([N+](=O)[O-])c(O)c([N+](=O)[O-])c1.c1ccc(Oc2ccncc2)cc1 | inactive | 
CCOP(C)(=S)SCC(=O)NC(C)C(=O)O (stereo not drawn) | inactive | 
CCCCOc1ccc(C(=O)NCC2(N3CCCCC3)CCCCC2)cc1OC | inactive | 

SMILES | Potency | activity, negative = less viability
CP(=O)(Nc1ccccc1Br)Oc1ccccc1 (stereo not drawn) | inactive | 
COc1ccccc1OP(C)(=O)Nc1ccccc1 (stereo not drawn) | inactive | 
CP(=S)(Nn1cnnc1)Oc1ccccc1 (stereo not drawn) | inactive | 
CN(C)C1(CNC(=O)c2ccc(S(C)(=O)=O)cc2)CCCCC1 | inactive | 
CC1=C2N=C(C=C3N=C(C(C)=C4[N-][C@@](C)([C@@H]5N=C1[C@](C)(CCC(=O)NC[C@@H](C)OP(=O)([O-])O[C@H]1[C@@H](O)[C@@H](n6cnc7cc(C)c(C)cc76)O[C@@H]1CO)[C@H]5CC(N)=O)[C@@](C)(CC(N)=O)[C@@H]4CCC(N)=O)[C@@](C)(CC(N)=O)[C@@H]3CCC(N)=O)C(C)(C)[C@@H]2CCC(N)=O.[C-]#N.[Co+3] | inactive | 
O=[N+]([O-])c1cc([N+](=O)[O-])c(Nc2nnnn2CCO)c([N+](=O)[O-])c1 | inactive | 
COc1ccc(-c2ccccn2)cc1.O=[N+]([O-])c1cc([N+](=O)[O-])c(O)c([N+](=O)[O-])c1 | inactive | 
CCCOc1ccc(NP(C)(=O)Oc2ccc(Cl)cc2)cc1 (stereo not drawn) | inactive | 
CP(=O)(Nc1ccc(SC(F)(F)F)cc1)Oc1ccccc1 (stereo not drawn) | active: 23.1 µM | 
COc1ccccc1OP(C)(=O)Nc1c(C)cccc1C (stereo not drawn) | inactive | 
CN1CCCCC1COC(=O)C1(O)c2ccccc2CCc2ccccc21 (stereo not drawn) | inactive | 
CN(Cc1cccnc1)C(=O)COc1ccc(Cl)c(Cl)c1.O=[N+]([O-])c1cc([N+](=O)[O-])c(O)c([N+](=O)[O-])c1 | inactive | 
O=[N+]([O-])c1cc([N+](=O)[O-])c(-n2nnc3ccccc32)c([N+](=O)[O-])c1 | inactive | 
Cc1nc2ccc3ccccc3c2s1.O=[N+]([O-])c1cc([N+](=O)[O-])c(O)c([N+](=O)[O-])c1 | inactive | 
O=[N+]([O-])c1cc([N+](=O)[O-])c(-c2cnn(-c3ccccc3)c2)c([N+](=O)[O-])c1 | active: 29.1 µM | 
CCOC(=O)c1ccc(NP(C)(=O)Oc2cc(C)cc(C)c2)cc1 (stereo not drawn) | inactive | 
Cc1cc(C)cc(OP(C)(=O)Nc2ccc(C)cc2C)c1 (stereo not drawn) | inactive | 
COc1ccccc1OP(C)(=O)Nc1cccc(Br)c1 (stereo not drawn) | inactive | 
COc1cc(C(=O)NCC2(N3CCOCC3)CCCCC2)cc(Cl)c1OC(C)C | inactive | 
Cc1ccc(C)c(NP(C)(=O)Oc2ccccc2)c1 (stereo not drawn) | inactive | 
Cc1cc(C)cc(OP(C)(=O)Nc2ccccn2)c1 (stereo not drawn) | inactive | 
CP(=O)(Nc1cccc(Br)c1)Oc1ccccc1 (stereo not drawn) | inactive | 

SMILES | Potency | activity, negative = less viability
CC1=NCCc2c1[nH]c1ccccc21.O=[N+]([O-])c1cc([N+](=O)[O-])c(O)c([N+](=O)[O-])c1 | inactive | 
CCOC(=O)c1ccc(NP(C)(=O)Oc2ccc(F)cc2)cc1 (stereo not drawn) | inactive | 
COc1ccc(OP(C)(=O)Nc2ccc(SC(F)(F)F)cc2)cc1 (stereo not drawn) | inactive | 
CP(=O)(Nc1ccccc1)Oc1ccc(F)cc1 (stereo not drawn) | inactive | 
Cc1c([N+](=O)[O-])cc([N+](=O)[O-])c(Br)c1[N+](=O)[O-] | inactive | 
CCN(CC)CCCOC(=O)C(O)(c1ccccc1)C1CCCCC1 (stereo not drawn) | inactive | 
O=C(OCCN1CCN(CCOCc2ccccc2)CC1)C(O)(c1ccccc1)c1ccccc1 | inactive | 
CCOP(C)(=S)SCC(=O)NC(C)(CC)C(=O)O (stereo not drawn) | inactive | 
CP(=O)(Nc1ccc(SC(F)(F)F)cc1)Oc1ccc(F)cc1 (stereo not drawn) | inactive | 
Cc1ccccc1NP(C)(=O)Nc1ccccc1C | inactive | 
O=[N+]([O-])c1cc([N+](=O)[O-])c(C(F)(F)F)c([N+](=O)[O-])c1O | inactive | 
CP(=O)(Nc1ccc2c(c1)OCCO2)Oc1ccccc1 (stereo not drawn) | inactive | 
CN(C)CCOC(=O)C(O)(c1ccccc1)C1CCCCC1 (stereo not drawn) | inactive | 
COc1ccc(NP(C)(=O)Oc2ccccc2OC)cc1 (stereo not drawn) | inactive | 
COc1ccc(OP(C)(=O)Nc2cccc(Br)c2)cc1 (stereo not drawn) | inactive | 
CN(C)C1(CNC(=O)c2ccc(Cl)c(S(N)(=O)=O)c2)CCCCC1 | inactive | 
Cc1c(C(c2ccc3c(c2)OCO3)c2c(C)n(C)n(-c3ccccc3)c2=O)c(=O)n(-c2ccccc2)n1C.O=[N+]([O-])c1cc([N+](=O)[O-])c(O)c([N+](=O)[O-])c1 | inactive | 
O=[N+]([O-])c1ccc(OP2(=O)COCCO2)cc1 (stereo not drawn) | inactive | 
CCOC(=O)c1ccc(NP(C)(=O)Oc2ccc(Cl)cc2)cc1 (stereo not drawn) | inactive | 
CP(=O)(OC12CC3CC(CC(C3)C1)C2)OC12CC3CC(CC(C3)C1)C2 | inactive | 
Nc1ccc2c(ccc3cccnc32)n1.O=[N+]([O-])c1cc([N+](=O)[O-])c(O)c([N+](=O)[O-])c1 | inactive | 
O=C(OCCCN1CCCC1)C(O)(c1ccccc1)C1CCCCC1 (stereo not drawn) | inactive | 

SMILES | Potency | activity, negative = less viability
COc1ccccc1OP(C)(=O)Nc1c(C)n(C)n(-c2ccccc2)c1=O (stereo not drawn) | inactive | 
CCc1ccc(OP(C)(=O)Nc2cccnc2)cc1 (stereo not drawn) | inactive | 
CP(=O)(Oc1ccccc1)N1CCOC1=O (stereo not drawn) | inactive | 
COc1ccc(OP(C)(=O)Nc2ccc(Br)cc2)cc1 (stereo not drawn) | inactive | 
CCN(CC)CC(O)COC(=O)C(O)(c1ccccc1)C1CCCCC1 (stereo not drawn) | inactive | 
CN(C)C(=O)c1c([N+](=O)[O-])cc([N+](=O)[O-])cc1[N+](=O)[O-] | inactive | 
COc1ccccc1OP(C)(=O)Nc1ccccc1Br (stereo not drawn) | inactive | 
CC(C)(C)c1ccc(OP(C)(=O)O)cc1 |  | inactive: 3.97% [at 9.24 µM]
CP(=O)(Nc1ccc(Cl)cc1)Oc1ccc(F)cc1 (stereo not drawn) | inactive | 
CN(C)CCOC(=O)C(O)(c1ccccc1)C1CCCC1 (stereo not drawn) | inactive | 
COc1ccccc1OP(C)(=O)Nc1ccc(Br)cc1 (stereo not drawn) | inactive | 
COc1ccccc1OP(C)(=O)Nc1ccc(C)cc1C (stereo not drawn) | inactive | 
CP(=O)(Nc1ccccn1)Oc1ccccc1 (stereo not drawn) | inactive | 
CCc1ccc(OP(C)(=O)O)cc1 | inactive | 
Cc1c(NP(C)(=O)Oc2ccc(C(C)C)cc2)c(=O)n(-c2ccccc2)n1C (stereo not drawn) | inactive | 
O=[N+]([O-])c1cc([N+](=O)[O-])c(Nc2ccccn2)c([N+](=O)[O-])c1 | active: 16.4 µM | 
COc1ccccc1OP(C)(=O)Nc1ccc(C)c(C)c1 (stereo not drawn) | inactive | 
COc1ccc(OP(C)(=O)Nc2ccccc2Br)cc1 (stereo not drawn) | inactive | 
Cc1cc(C)cc(OP(C)(=O)Nc2cccc(C(F)(F)F)c2)c1 (stereo not drawn) | inactive | 
CCCCCCCCCCCCCCCC1C[N+](C)(C)CCOP(C)(=O)O1 (stereo not drawn) | inactive | 
CP(=O)(Nc1ccc(Cl)cc1Cl)Oc1ccccc1 (stereo not drawn) | inactive | 
CP(=O)(OCCOc1ccccc1)OCCOc1ccccc1 | inactive | 
